Measurements reported in patent US20250319032A1, “PHARMACEUTICAL COMPOSITIONS OF RIBOCICLIB” (Novartis AG, priority 2024, published 2025).

Assay: Validation of the HPLC-HRMS method for N-nitroso-ribociclib (precision, accuracy, linearity, LOQ, stability of standard and sample solutions)
Settings: for NNR in sample solution, single replicate / NNR in sample solution, Average (ppm): AS at room temperature
Procedure: The method was validated in the range 0.0625 ppm to 12.5 ppm N-nitroso-ribociclib (NRR) with regard to ribociclib free base. For the purpose of this validation only, the 100% target limit was set at 3.75 ppm (1500 ng NRR/400 mg ribociclib free base).
Six replicates of the “Sample solution” were prepared according to the procedure described above and tested on the same day. The results are expressed as ppm of NNR with regard to ribociclib free base (μg NNR/g ribociclib free base)
Two series of six replicates of the “Sample solutions” were prepared according to the procedure described above and tested by two different analysts, on two different days, using different LC/MS systems and different columns. The results are expressed as ppm of NNR with regard to ribociclib free base (μg NNR/g ribociclib free base)
Three replicates of calibration standard solutions L1 (c=0.5 ng/ml) and L6 (c=100 ng/ml) were prepared according to the procedure described above. Solutions were stored in the dark at room temperature (autosampler (AS) vials). After a period of time, the solutions were reanalyzed. The stability of standard solutions is evaluated by determining the relative difference between the responses […] The results are expressed as concentration in ng/ml, determined from calibration curve in each sequence (time point).
Three replicates of Sample solution were prepared according to AP. The replicates were analysed at t=0 h and after app. 24 hours and 48 hours of storage in vials AS at room temperature. The results are expressed as ppm of NNR wrt ribociclib free base. (μg NNR/g ribociclib free base).
In addition, FCT samples stored in flasks on the bench were filtered at defined time point and analysed. For 48 hours stability, composite samples (from Accuracy) were used.
Sample solutions were prepare according to the procedure described above using 10 mL, 25 mL and 50 mL flasks, three replicates for each volume. Results for 25 mL and 50 mL were compared to 10 mL volume that is prescribed in the AP. The results are expressed as ppm of NNR with regard to ribociclib free base (μg NNR/g ribociclib free base)
For ribociclib succinate drug substance, the same drug substance batch (834325A001) was tested unspiked and spiked at three levels in three independent replicates.
For ribociclib FCT, one composite sample preparation and three replicates of spiked composite sample solutions (prepared as described above) were prepared and tested on the same day.
The samples (drug substance or composite sample) were spiked at 0.5 ng/ml (0.0625 ppm), 30 ng/mlL (3.75 ppm) and 100 ng/ml (12.5 ppm) levels. Amount of NNR present in the unspiked sample was subtracted and recoveries were calculated as a ratio between amounts found and amounts added.
Three replicates of calibration solutions that were prepared for different sequences are presented in the Table below and in FIGS. 14A-14D. In each sequence, calibration solution L1 was injected six times as part of SST test (Repeatability of injections) and the average response was taken for the calculation of calibration curve. Linear regression was weighed with 1/amount.
Amount of NNR present in the unspiked sample was subtracted (see above) and RSD of corrected amounts calculated.

**Q.** What does the source list for CN(C)C(=O)c1cc2cnc(Nc3ccc(N4CCNCC4)cn3)nc2n1C1CCCC1.O=C(O)CCC(=O)O [Ribociclib succinate drug substance]?
**A.** NNR in sample solution, single replicate (0 h): 0.243 ppm and 0.235 ppm; NNR in sample solution, Average (ppm) (24 h): 0.225 ppm; NNR in sample solution, single replicate (24 h): 0.225 ppm and 0.222 ppm; NNR in sample solution, Average (ppm) (48 h): 0.226 ppm; NNR in sample solution, single replicate (48 h): 0.229 ppm and 0.223 ppm and 0.225 ppm

**Q.** Which results are given for CN(C)C(=O)c1cc2cnc(Nc3ccc(N4CCNCC4)cn3)nc2n1C1CCCC1.O=C(O)CCC(=O)O [ribociclib succinate drug substance]?
**A.** NNR Average (ppm), Intraday (n = 6): 0.238 ppm; NNR (ppm), Intraday precision, single replicate (sample solution, replicates R1-R6, wrt ribociclib free base): 0.243 ppm and 0.235 ppm and 0.238 ppm and 0.236 ppm

“And” between values parts separate entries of the source, which are not always exact repeats. Identical values can stand only once.
